SMILES strings stand for the structures. Several values for one entry are separate records, joined by “and”; a condition that tells them apart may be missing. Equal values may be shown once. The list shows a part of the results, in another mix than the full data. Activity calls are given as the source filed them. The call rests on the fitted dose curve; in most records, active means well fitted activation curve with a large enough effect; inconclusive means small, poorly fitted or top-dose-only effect; inactive means no such curve, though single readings can be large or run the other way.

The nature of the assay: qHTS for Inducers of the Endoplasmic Reticulum Stress Response (ERSR) in Human Glioma: qHTS. Further: % of control where 0% means no effect; nearly all actives have a fitted effect of over 35% in size. The following applies: U87-MG GRP78 promoter luciferase reporter, 16 h; stronger effect = higher value. In general terms: qHTS replaces the single test concentration by a dilution series.
For `CN(CCCl)CCCl`, the activation is inactive: -3.7% and inactive: -2.42%.

With `CCC(=O)N(c1ccccc1)C1(COC)CCN(CCn2nnn(CC)c2=O)CC1`, the activation is inactive: -2.18% and inactive: 1.83%.

As for `CCC(=O)N(c1ccccc1)C1(COC)CCN(CCc2cccs2)CC1`, the activation was inactive: -2.26% and inactive: -2.66%.
